# Results published in article PMC10726352, “Discovery of KB-0742, a Potent, Selective, Orally Bioavailable Small Molecule Inhibitor of CDK9 for MYC-Dependent Cancers” (Journal of Medicinal Chemistry, 2023).
# “And” between values parts separate entries of the source, which are not always exact repeats. Identical values can stand only once. Like-named read-outs stand apart in the source and are kept apart here.
# Columns and labels:
# [1] = Projection of human PK parameters; conditions: 70 kg body weight; IVIVE and allometry
# [2] = tested on: MYC; conditions: 60 mg/kg p.o.
# [3] = tested on: pSER2 (RNAP II Ser 2); conditions: 60 mg/kg p.o.
# [4] = tested on: CTG-0869; conditions: CTG-0869, 60 mg/kg PO 3-days on, 4-days off
# [5] = tested on: CTG-0437; conditions: CTG-0437, 60 mg/kg PO 3-days on, 4-days off
smiles,measurement,setting,value
"CCC(CC)c1cc(N[C@H]2CC[C@H](N)C2)n2nccc2n1 [Compound 28, [(1S,3S)-3-[[5-(1-Ethylpropyl)pyrazolo[1,5-a]pyrimidin-4-ium-7-yl]amino]cyclopentyl]ammonium Dichloride]",mean predicted human plasma clearance (Cl),[1],2.0 mL/min/kg and 2 mL/min/kg
same,MYC levels in tumor,[2]; 2 h post-terminal dose,significantly reduced
same,MYC levels in tumor,[2]; 8 h post-administration,no longer significantly different from vehicle
same,pSER2 levels in tumor,[3]; 2 h post-terminal dose,significantly reduced
same,pSER2 levels in tumor,[3]; 8 h post-administration,no longer significantly different from vehicle
same,TGI,[4],59%
same,TGI,[5],42%
